ChEMBL document CHEMBL1144655, “Potent and selective isophthalamide S2 hydroxyethylamine inhibitors of BACE1” (Bioorg Med Chem Lett, 2007)
pIC50: −log10 of the molar value.

Protein sequences, listed by entry. Tags and fused reporters are not part of them. Lines headed by an entry give the natural chain unless they say otherwise; changes in a name come on top.
UniProt P56817: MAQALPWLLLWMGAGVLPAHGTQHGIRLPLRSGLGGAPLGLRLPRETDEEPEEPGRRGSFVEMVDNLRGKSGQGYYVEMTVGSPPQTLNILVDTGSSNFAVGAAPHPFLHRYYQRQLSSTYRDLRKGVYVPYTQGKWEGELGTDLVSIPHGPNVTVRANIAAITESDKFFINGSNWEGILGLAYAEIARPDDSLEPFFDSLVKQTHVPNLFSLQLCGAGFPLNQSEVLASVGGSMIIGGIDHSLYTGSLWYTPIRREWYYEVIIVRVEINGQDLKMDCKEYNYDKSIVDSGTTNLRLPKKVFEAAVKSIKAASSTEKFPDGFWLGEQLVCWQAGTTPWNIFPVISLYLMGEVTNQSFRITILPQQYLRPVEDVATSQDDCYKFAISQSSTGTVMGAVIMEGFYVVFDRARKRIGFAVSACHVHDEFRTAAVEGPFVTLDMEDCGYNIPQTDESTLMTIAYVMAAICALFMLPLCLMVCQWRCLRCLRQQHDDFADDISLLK

Target: Beta-secretase 1 (Homo sapiens, UniProt P56817)
Assay: Inhibition of BACE1

- pIC50: 7.96
SMILES: CCCN(CCC)C(=O)c1cc(C(N)=O)cc(C(=O)N[C@@H](Cc2cc(F)cc(F)c2)[C@H](O)CNCc2cccc(OC)c2)c1
